# Tested on: 2-phenyl-1,4-benzoquinone-induced writhing
# Assay: 2-phenyl-1,4-benzoquinone-induced writhing test in mice (analgesia)
# Format: in vivo
# Settings: oral dose
smiles,measurement,value
O=C1c2ccccc2COc2ccc(CCN3CCC(n4c(=O)[nH]c5ccccc54)CC3)cc21,ED50 (dosage which exhibits 50% inhibition of writhing),22.7 mg/kg of body weight
